This passage reports Ki results from ChEMBL document CHEMBL1124132, “Adenosine receptor agonists: synthesis and biological evaluation of 1-deaza analogues of adenosine derivatives” (J Med Chem, 1988).

Sequences of proteins named here, by UniProt entry; tags and fusion partners are left off. A change or cut given only in a name is not applied to a line headed by its entry.
UniProt P29276: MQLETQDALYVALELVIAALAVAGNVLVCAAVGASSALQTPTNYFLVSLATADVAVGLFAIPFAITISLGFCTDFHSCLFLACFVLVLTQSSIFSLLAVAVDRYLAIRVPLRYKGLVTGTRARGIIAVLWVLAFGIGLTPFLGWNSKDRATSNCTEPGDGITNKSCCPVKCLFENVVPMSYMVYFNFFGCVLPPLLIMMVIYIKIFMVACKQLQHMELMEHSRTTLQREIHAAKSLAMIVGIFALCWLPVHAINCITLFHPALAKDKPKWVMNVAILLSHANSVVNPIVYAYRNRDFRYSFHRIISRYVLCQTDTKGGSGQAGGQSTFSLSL
UniProt P30543: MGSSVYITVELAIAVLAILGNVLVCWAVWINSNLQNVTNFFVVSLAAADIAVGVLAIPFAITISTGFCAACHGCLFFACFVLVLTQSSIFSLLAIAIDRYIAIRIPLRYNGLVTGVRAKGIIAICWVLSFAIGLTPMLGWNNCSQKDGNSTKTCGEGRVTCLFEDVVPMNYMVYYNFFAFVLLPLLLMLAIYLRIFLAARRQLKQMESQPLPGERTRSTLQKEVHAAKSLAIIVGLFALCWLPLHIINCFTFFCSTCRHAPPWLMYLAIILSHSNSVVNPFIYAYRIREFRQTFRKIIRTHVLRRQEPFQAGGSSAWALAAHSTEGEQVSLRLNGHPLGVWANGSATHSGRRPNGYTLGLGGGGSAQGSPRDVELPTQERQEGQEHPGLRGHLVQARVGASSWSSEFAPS

In general, Ki refers to the equilibrium dissociation constant of an inhibitor or competing ligand from its target. Low readings indicate a stronger hold on the target, high ones a looser hold on the target.

In this assay the target is Adenosine A2 receptor (Rattus norvegicus, UniProt P29276+P30543).

In turn, `C[C@H](Cc1ccccc1)Nc1ncnc2c1ncn2[C@@H]1O[C@H](CO)[C@@H](O)[C@H]1O` [(R)-PIA] showed a Ki of 730 nM.
